Experimental data taken from ChEMBL document CHEMBL4304759, “Identifying Novel Anti-Osteoporosis Leads with a Chemotype-Assembly Approach” (J Med Chem, 2019).

System: Rattus norvegicus
Test: Anti-osteoporosis activity in ovariectomized Sprague-Dawley rat assessed as femur bone mineral density loss at 1 mg/kg/day, po for 3 months measured post-last dose by dual energy X-ray absorptiometry (RVb = 19%)
Assay type: functional

Question: Which Activity does the source give for NCCCC(O)(P(=O)([O-])O)P(=O)(O)O.O.O.O.[Na+] here?
Answer: 3%
